# Source: patent US8623906B2, “Carboxy isatin hydrazones and their esters as Shp2 inhibitors” (H. Lee Moffitt Cancer Center and Research Institute, Inc., priority 2009, dated 2014)
# Tested on: GST-Shp2 PTP domain protein
# Conditions: tested form: meglumine salt
structure (smiles),measurement,value
O=C1Nc2ccc(S(=O)(=O)NCc3ccc(F)cc3)cc2C1=NNc1cccc(C(=O)O)c1,IC50,2.8 µM
